In PMC9495587, “Neuroprotective Effects of the Lithium Salt of a Novel JNK Inhibitor in an Animal Model of Cerebral Ischemia–Reperfusion” (Biomedicines, 2022) one finds Kd data, which are given here for one compound.

Sequences of proteins named here, by UniProt entry; tags and fusion partners are left off. A change or cut given only in a name is not applied to a line headed by its entry.
UniProt P45983: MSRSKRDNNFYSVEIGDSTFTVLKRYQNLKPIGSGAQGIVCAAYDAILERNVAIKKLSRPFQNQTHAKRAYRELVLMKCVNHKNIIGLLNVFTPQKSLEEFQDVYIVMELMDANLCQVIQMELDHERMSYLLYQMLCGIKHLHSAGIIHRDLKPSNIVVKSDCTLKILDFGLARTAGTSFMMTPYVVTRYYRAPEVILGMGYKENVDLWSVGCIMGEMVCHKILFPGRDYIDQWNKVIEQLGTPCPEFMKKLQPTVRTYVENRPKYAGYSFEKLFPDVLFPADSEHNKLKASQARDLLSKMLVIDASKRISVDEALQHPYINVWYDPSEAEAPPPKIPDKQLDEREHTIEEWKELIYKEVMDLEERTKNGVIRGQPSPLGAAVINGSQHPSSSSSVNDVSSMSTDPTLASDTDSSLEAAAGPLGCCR
UniProt P53779: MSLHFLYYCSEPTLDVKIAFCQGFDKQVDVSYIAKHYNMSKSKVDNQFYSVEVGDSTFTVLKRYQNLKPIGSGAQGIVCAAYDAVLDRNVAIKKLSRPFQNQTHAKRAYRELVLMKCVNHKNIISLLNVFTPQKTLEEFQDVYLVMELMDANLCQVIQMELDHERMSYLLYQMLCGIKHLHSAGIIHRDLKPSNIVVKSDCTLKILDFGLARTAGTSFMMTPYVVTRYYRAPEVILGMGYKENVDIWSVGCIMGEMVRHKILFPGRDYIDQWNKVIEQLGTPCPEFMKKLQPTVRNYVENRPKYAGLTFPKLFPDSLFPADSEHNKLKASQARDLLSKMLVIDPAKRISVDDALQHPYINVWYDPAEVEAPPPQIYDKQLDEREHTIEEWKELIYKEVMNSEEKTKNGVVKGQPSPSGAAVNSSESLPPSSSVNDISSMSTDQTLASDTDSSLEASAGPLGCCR
UniProt P45984: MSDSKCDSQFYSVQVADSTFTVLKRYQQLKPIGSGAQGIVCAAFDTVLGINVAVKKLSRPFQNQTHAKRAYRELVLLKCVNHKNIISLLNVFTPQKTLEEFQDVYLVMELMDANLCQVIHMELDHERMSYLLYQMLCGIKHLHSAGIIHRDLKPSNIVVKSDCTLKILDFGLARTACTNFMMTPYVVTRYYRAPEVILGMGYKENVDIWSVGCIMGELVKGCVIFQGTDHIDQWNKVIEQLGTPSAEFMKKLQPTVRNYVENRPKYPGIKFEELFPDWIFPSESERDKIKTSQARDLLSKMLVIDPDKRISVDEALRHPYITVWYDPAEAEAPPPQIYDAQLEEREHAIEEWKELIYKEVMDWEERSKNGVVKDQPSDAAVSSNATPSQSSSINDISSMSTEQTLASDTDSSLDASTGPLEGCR

What all share (experiment): KINOMEscan competition binding assay (Kd, 12-point dilution series)
One experiment concerns the target T1, JNK1 (Homo sapiens, UniProt P45983).
T1 construct: gene MAPK8

The target in another experiment is T2, JNK3 (Homo sapiens, UniProt P53779).
T2 construct: gene MAPK10

The next experiment has as its target T3, JNK2 (Homo sapiens, UniProt P45984).
T3 construct: gene MAPK9

Where a name gives a salt, the structure may show the parent alone.

Turning to `ON=C1c2ccccc2-c2nc3ccccc3nc21` [IQ-1L, lithium salt of oxime 11H-indeno[1,2-b]quinoxaline-11-one], the Kd on JNK1 is 140 ± 10 nM; at JNK3, 55 ± 10 nM; at JNK2, 150 ± 40 nM.
